Test system: alpha 2 receptor
Conditions: applied IP

SMILES: Clc1ccc2nsnc2c1NC1=NCCN1 [Tizanidine, tizanidine]
- concentration at which therapeutic effects begin: about 100 micrograms/kg

Source: US20040116436A1, “Treatment of dementia and parkinson's disease” (priority 2002, published 2004)
